Experiments:
[1] = solubility in toluene and methylethyl ketone at room temperature; conditions: 25° C.; for Solubility MEK: methylethyl ketone
[2] = maximum absorption wavelength and absorptivity coefficient in toluene (spectrophotometer); format: physicochemical
Description: By the use of a spectrophotometer (Shimadzu Seisakusho Ltd., UV-3100), the phthalocyanine compound obtained in this example [VOPc(2,5-Cl2 PhO)8 (2,6-Br2 -4-CH3 PhO)4 {Ph(CH3)CHNH}3 F] was tested for the maximum absorption wavelength and the absorptivity coefficient in toluene.

[3] = transmittance to the visible ray of chloroform solution (JIS R3106); format: physicochemical; conditions: 1 cm quartz cell, lowest transmittance at 750 to 1050 nm set to 5 to 6%
[4] = in CH2Cl2

Row | Substance | Solubility MEK [1] | Solubility Toluene [1] | Maximum Absorption Wavelength [2] [nm] | Transmittance to Visible Ray [3] [%] | λmax [4] [cm⁻¹]
1 | octafluoro-octakisanilino oxyvanadium phthalocyanine [Control 2, reference compound] | .circleincircle. (a solubility of not less than 5% by weight) | .circleincircle. (a solubility of not less than 5% by weight) |  |  | 
2 | penta(4-methoxyphenylamino)deca(4-methylphenylthio) copper phthalocyanine [Control 3] | .largecircle. | .circleincircle. (a solubility of not less than 5% by weight) | 849 | 61 | 860

Reference: patent US6323340A, “Phthalocyanine compound, method for production thereof, and near infrared absorption dye using the compound” (Nippon Shobukai Co., Ltd., priority 1999, dated 2001)
